Yeast UUG start: modulators of start codon recognition fidelity in yeast; AID 602363; activity score, % at 18.7 µM; S. cerevisiae UUG-firefly luciferase reporter, luminescence/redox ratio; actives 0.13% (n = 350,000);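 active = replicate mean at a twofold rise or more, about +100% in these data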;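 note: firefly luciferase made from a UUG start codon reports start codon fidelity; reporter light over untreated wells divided by growth signal over untreated wells; some hits fall short of that in this replicate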
ARNT-TACC3 inh: ARNT/TACC3 interaction disruption | Q9Y6A5 | AlphaScreen His-ARNT PAS-B/GST-TACC3 binding, luminescence; TACC3 fragment carries E629A point mutation | inhibition, % at 9.99 µM | actives 0.66% (n = 390,000) | AID 623870;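 active means mean inhibition of replicates at least 50% and at least half of replicates each reaching 50%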
PDI inh: inhibitors of human protein disulfide isomerase; P07237; PDI insulin aggregation turbidity, A650, 90 min; inhibition, % at 10 µM; actives 0.052% (n = 350,000);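 active means mean inhibition across replicates of 30% or more, whatever share of single replicates reach that level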
ERp5 block: ERp5 (human) disulfide isomerase inhibition; AID 651711; actives 0.05% (n = 350,000); ERp5 insulin aggregation, absorbance 650 nm, 90 min; Q15084; inhibition, % at 9.99 µM;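 active means mean replicate inhibition above about 25%, with every replicate also reaching it, limit read from the data, passing the limit was not always enough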
FGF22 binding: FGF22 (human) thermal shift binding | AID 651658 | actives 1.5% (n = 340,000) | activity (Tm shift, normalised), % at 9.99 µM | Q9HCT0 | recombinant FGF22 thermal shift, SYPRO orange fluorescence; percent of sucrose octasulfate shift, DMSO zero;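 active means mean Tm shift, scaled 0 neutral to 100 positive control, at about 1.3% or above, every replicate too, limit read from the data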
PglD inh: inhibitors of Campylobacter jejuni PglD acetyltransferase; purified PglD enzyme, DTNB colorimetric CoA detection; inhibition, % at 12.5 µM; actives 0.098% (n = 360,000); AID 602405; in the data active means inhibition above about 16%, passing the limit was not always enough
Numbers stand for hits; n = inactive; x = no result. Compounds with a hit are over-represented: about 1.9% of the library has one in this group of screens.

SMILES | Yeast UUG start | ARNT-TACC3 inh | PDI inh | ERp5 block | FGF22 binding | PglD inh
CCC(=O)N1CC2(C1)[C@H](c1ccc(C3=CCCC3)cc1)[C@H](CO)N2C(=O)COC | x | x | x | n | x | x
O=C(O)c1ccccc1-c1ccc(/C=c2\sc3nc4cc(Br)cnc4n3c2=O)o1 | n | 50 | n | x | x | n
COc1cc(/C=C2\C(=N)N3N=C(S(C)(=O)=O)SC3=NC2=O)ccc1OCCOc1ccc(C)cc1 | n | n | n | n | n | n
COc1cc(/C=C2\C(=N)N3N=C(S(C)(=O)=O)SC3=NC2=O)cc(OC)c1OCCOc1ccc(C)cc1 | n | n | n | n | 1.7 | n
COc1cc(/C=C2\C(=N)N3N=C(S(C)(=O)=O)SC3=NC2=O)cc(OC)c1OCCOc1cccc(C)c1 | n | n | n | n | 2.0 | n
CCOc1cc(/C=C2\C(=N)N3N=C(S(C)(=O)=O)SC3=NC2=O)ccc1OCCOc1cccc(OC)c1 | x | n | n | n | n | x
O=C(Nc1ccccc1F)N1C[C@@H]2[C@H](c3ccccc31)[C@H](CO)N2C(=O)c1ccc(F)cc1 | n | n | x | n | n | n
Cc1ccc(NC2=C(NCCO)C(=O)c3ccccc3C2=O)cc1 | x | 48 | n | x | x | x
CC(=O)Nc1ccc(NC2=C(Cl)C(=O)c3ccccc3C2=O)cc1 | x | x | x | n | n | x
O=C(Cc1c[nH]c2ccccc12)NCc1ccco1 | x | n | n | n | 43 | x
O=C(NCc1ccco1)C(=O)c1c[nH]c2ccccc12 | n | x | n | n | n | n
Cc1noc(C)c1S(=O)(=O)Nc1ccc2c(c1)CC(=O)N([C@H](C)CO)C[C@H](C)[C@H](CN(C)C(=O)Nc1ccc3c(c1)OCO3)O2 | n | n | x | x | n | n
CCc1nnc(NC(=O)c2ccc(F)c(S(=O)(=O)N3CCCCC3)c2)s1 | n | n | n | n | n | n
Cc1nnc(NC(=O)c2ccc(F)c(S(=O)(=O)N3CCOCC3)c2)s1 | n | n | n | n | 43 | n
CCCC#Cc1ccc2c(c1)[C@@H]1[C@@H](CCN1C(=O)C1CCCCC1)[C@@H](CO)N2 | x | x | x | n | x | x
O=C(CN1CCN(C(c2ccccc2)c2ccccc2)CC1)Nc1ccc(N2CCOCC2)cc1 | x | n | n | n | 43 | x
O=C(CN1CCN(S(=O)(=O)c2ccccc2)CC1)Nc1ccc(N2CCOCC2)cc1 | n | n | n | x | x | n
C[C@H]1CCCCO[C@@H](CN(C)C(=O)CCCN(C)C)[C@@H](C)CN([C@@H](C)CO)C(=O)c2cc(NC(=O)c3ccncc3)ccc2O1 | x | x | x | n | n | x
CC1(C)Cc2c(sc(NC(=O)C3CC(Cl)=CCC3C(=O)O)c2C#N)CO1 (stereo not given) | x | n | n | n | 43 | x
N#Cc1c(NC(=O)C2CC(Cl)=CCC2C(=O)O)sc2c1CCCC2 (stereo not given) | x | n | n | n | n | x
O=c1cc(CSc2nnnn2-c2ccc(O)cc2)nc2sccn12 | n | n | 39 | n | n | n
Cn1c(Cc2ccccc2)nnc1SCc1cc(=O)n2ccsc2n1 | x | n | n | n | n | x
CCS(=O)(=O)N1N=C(c2cccc(NS(C)(=O)=O)c2)CC1c1ccccc1 (stereo not given) | x | n | n | n | n | x
CC(=O)N1N=C(c2cccc(NS(C)(=O)=O)c2)CC1c1cccs1 (stereo not given) | n | n | n | n | n | n
CCS(=O)(=O)Nc1cccc(C2=NN(S(C)(=O)=O)C(c3ccccc3)C2)c1 (stereo not given) | x | x | n | n | 43 | x
SMILES | Yeast UUG start | ARNT-TACC3 inh | PDI inh | ERp5 block | FGF22 binding | PglD inh
CC(C)(C)C(=O)N1N=C(c2ccc(NS(C)(=O)=O)cc2)CC1c1cccs1 (stereo not given) | x | x | n | n | 43 | x
CCS(=O)(=O)Nc1cccc(C2=NN(C(C)=O)C(c3cccs3)C2)c1 (stereo not given) | n | n | n | n | 43 | n
CS(=O)(=O)Nc1ccc(C2=NN(C(=O)c3ccccc3)C(c3cccs3)C2)cc1 (stereo not given) | n | n | n | n | n | n
C[C@@H]1CCCCO[C@@H](CN(C)Cc2ccc(C(=O)O)cc2)[C@@H](C)CN([C@@H](C)CO)C(=O)c2cc(NS(=O)(=O)c3ccc(F)cc3)ccc2O1 | n | n | x | n | n | n
CCS(=O)(=O)N1[C@@H](CO)[C@H](c2ccccc2)C12CN(C(=O)C1CC1)C2 | x | x | x | n | n | x
CC(C)NC(=O)N[C@H]1CC[C@H](CC(=O)NCCN2CCCC2)O[C@H]1CO | n | n | x | n | n | n
Cc1ccccc1C1NC(=S)NC2=C1C(=O)CC(C)(C)C2 (stereo not given) | x | n | n | n | 43 | x
CC1(C)CC(=O)C2=C(C1)Nc1ccccc1NC2c1ccccc1F (stereo not given) | n | n | n | n | n | n
CN(c1ccccc1)S(=O)(=O)c1cccc(NC(=O)CSc2nccc(=O)[nH]2)c1 | n | n | n | n | 43 | n
CN(c1ccccc1)S(=O)(=O)c1cccc(NC(=O)CSc2n[nH]c(N)n2)c1 | n | n | n | n | n | n
CC(C)(C)OC(=O)NCCCCCc1cn([C@@H](CO)C(=O)NCCCCCCCCCCC(=O)N2CCN(C(=O)OC(C)(C)C)CC2)nn1 | n | n | n | n | 1.3 | n
C=C(C)CN(CC)C(=O)CSc1nc(O)cc(=O)n1C1CCCC1 | x | n | n | n | 43 | x
CCn1c(SCC(=O)N2CCCCC2)nc(O)cc1=O | n | n | n | x | x | n
COc1ccc(C#Cc2ccc3c(c2)O[C@@H](CN(C)C(=O)c2ccccn2)[C@@H](C)CN([C@@H](C)CO)S3(=O)=O)cc1 | n | n | x | n | n | n
CC(C)NC(=O)N(C)C[C@@H]1Oc2ncc(-c3cc4ccccc4o3)cc2C(=O)N([C@H](C)CO)C[C@@H]1C | n | n | x | 28 | n | n
C[C@H]1CN([C@@H](C)CO)C(=O)c2cc(-c3cccc(C#N)c3)cnc2O[C@@H]1CN(C)Cc1cncnc1 | n | n | x | 34 | n | n
C[C@@H]1CN([C@H](C)CO)C(=O)c2cc(-c3cncnc3)cnc2O[C@H]1CN(C)C(=O)c1ccccc1F | n | active | x | n | n | n
C[C@H](CO)N1C[C@H](C)[C@H](CN(C)Cc2cncnc2)Oc2ncc(-c3cccc(C#N)c3)cc2C1=O | n | n | x | 52 | n | n
C[C@@H]1CN([C@@H](C)CO)C(=O)c2cc(-c3cccc(C#N)c3)cnc2O[C@@H]1CN(C)Cc1cncnc1 | n | n | x | n | n | n
C[C@@H]1CN([C@H](C)CO)C(=O)c2cc(-c3cccc(C#N)c3)cnc2O[C@H]1CN(C)Cc1cccnc1 | x | n | x | n | n | n
CC(C)NC(=O)N(C)C[C@@H]1Oc2c(NC(=O)Nc3cccc4ccccc34)cccc2C(=O)N([C@@H](C)CO)C[C@@H]1C | n | n | x | n | n | n
COc1cccc(CNC(=O)C[C@H]2CC[C@H](NC(=O)C3CCOCC3)[C@H](CO)O2)c1 | n | n | x | n | n | n

High-throughput results deposited in PubChem by Broad Institute.
